Test results: ChEMBL document CHEMBL1132296, “Anticonvulsant and sodium channel-blocking properties of novel 10,11-dihydro-5H-dibenz[b,f]azepine-5-carboxamide derivatives” (J Med Chem, 1999)

Tests used:
Rattus norvegicus = organism: Rattus norvegicus; assay: Compound was tested for anticonvulsant activity against MES-induced seizures in rat; parameters: concentration or dose not given beside the values
[1] = Protective index value of the compound, given by intraperitoneally (TD50/ED50); format: functional

Compound	Protection (Rattus norvegicus)	Protective index [1]
NC(=O)N1c2ccccc2C[C@H](O)c2ccccc21 [ESLICARBAZEPINE]	42%	5.6
NC(=O)N1c2ccccc2C[C@@H](O)c2ccccc21	22.5%	5.4
NC(=O)N1c2ccccc2CC(O)c2ccccc21 (stereo unspecified) [LICARBAZEPINE]	45.2%	6.1
